{
  "sequences": {"note": "The chains behind the UniProt entries cited, without tags or fusion partners. Where a name states a change or a piece, a line headed by the entry shows the natural chain unless it says otherwise.", "UniProt O77636": "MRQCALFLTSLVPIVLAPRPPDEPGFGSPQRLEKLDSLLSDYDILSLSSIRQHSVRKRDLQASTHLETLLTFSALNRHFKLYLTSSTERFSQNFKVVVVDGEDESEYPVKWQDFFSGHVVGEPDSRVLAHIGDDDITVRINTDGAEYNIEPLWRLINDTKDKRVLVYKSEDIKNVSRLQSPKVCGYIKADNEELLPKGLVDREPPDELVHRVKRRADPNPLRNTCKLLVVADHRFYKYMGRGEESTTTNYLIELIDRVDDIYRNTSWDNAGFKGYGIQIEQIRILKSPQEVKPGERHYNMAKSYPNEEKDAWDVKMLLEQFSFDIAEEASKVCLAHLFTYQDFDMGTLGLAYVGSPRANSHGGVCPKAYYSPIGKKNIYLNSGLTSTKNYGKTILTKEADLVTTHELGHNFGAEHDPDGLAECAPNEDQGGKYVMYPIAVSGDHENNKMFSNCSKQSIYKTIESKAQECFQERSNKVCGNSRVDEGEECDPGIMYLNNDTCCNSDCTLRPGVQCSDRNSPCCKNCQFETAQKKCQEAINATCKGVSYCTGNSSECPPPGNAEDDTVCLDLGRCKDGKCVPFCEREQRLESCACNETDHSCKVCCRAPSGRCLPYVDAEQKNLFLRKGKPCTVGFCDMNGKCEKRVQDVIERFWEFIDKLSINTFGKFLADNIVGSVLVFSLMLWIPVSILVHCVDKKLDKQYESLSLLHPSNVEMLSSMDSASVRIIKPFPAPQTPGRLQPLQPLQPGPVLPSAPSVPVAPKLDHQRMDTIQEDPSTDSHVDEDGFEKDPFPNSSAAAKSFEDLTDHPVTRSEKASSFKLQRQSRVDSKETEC"},
  "source": "ChEMBL document CHEMBL1135288",
  "about": "“Anthranilate sulfonamide hydroxamate TACE inhibitors. Part 1: Structure-based design of novel acetylenic P1' groups” (Bioorg Med Chem Lett, 2002)",
  "target": "Disintegrin and metalloproteinase domain-containing protein 17 (Sus scrofa, UniProt O77636)",
  "assay": "Inhibition of porcine Tumor necrosis factor alpha converting enzyme",
  "note": "pIC50: −log10 of the molar value.",
  "data": [
    {"compound": "CC#CCOc1ccc(S(=O)(=O)N(C)c2c(C)cc(Br)cc2C(=O)NO)cc1", "values": [
      {"measurement": "pIC50", "value": 7.80}
    ]},
    {"compound": "COc1ccc(S(=O)(=O)N(C)c2c(C)cc(Br)cc2C(=O)NO)cc1", "values": [
      {"measurement": "pIC50", "value": 7.49}
    ]}
  ]
}
